miR-21 reporter – raises the signal of a miR-21 reporter. Potency, µM (highest dose often 38.3 µM), without a hit: top-dose reporter change, positive = more light. 340,000 tested, under 10 active. HeLa miR-21 FLuc reporter, luciferase, 48 h; active = well fitted rising curve with a large enough effect; inconclusive = small, poorly fitted or top-dose-only effect; inactive = no such curve, though single readings can be large or run the other way;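 further: % of control where 0% means no effect; miR-21 action dims this reporter so a rising signal means less miR-21 action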
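Using DMEM plus 10% FBS, HeLa miR-21-FLuc cells are incubated with test compounds (final up to about 40uM) for 48 hours; firefly luciferase signal is then imaged following reagent-mediated lysis.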
G9a inh – inhibitors of human histone lysine methyltransferase G9a; G9a H3K9 monomethylation, AlphaScreen, 2 h; Potency, µM (titrated, usually from 102 µM), for inactives: at the highest dose activity, negative = inhibition, most hits filed as inhibitors; AID 504332; 350,000 tested, 8.8% active; note: potency is the fitted concentration of half-maximal effect; % is set by controls: 0 for no effect and ±100 for the full control effect; nearly all actives have a fitted effect of over 75% in size
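Readings reflect AlphaScreen signal from monomethyl-H3K9 antibody detection. HMT at 20 nM; substrate b-H3K9 500 nM; cofactor SAM 20 uM; 2 h RT reaction; compounds tested as titrations in qHTS with 15 min preincubation.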
KDM4E inh – JMJD2E (human) inhibition; B2RXH2; Potency, µM (series often up to 57.1 µM), inactives show top-dose activity change, negative = inhibition, hits mostly inhibitors; 230,000 tested, 1.6% active; JMJD2E catalytic domain, FDH-coupled NADH fluorescence (FDH is formaldehyde dehydrogenase);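 note: potency is the fitted concentration of half-maximal effect; 0% = wells with enzyme and -100% = buffer wells without enzyme; nearly all actives have a fitted effect of over 50% in size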
Sfp inh – blocks B. subtilis Sfp PPTase activity. Q9F4F7. Biochemical Sfp PPTase activity, qHTS. Potency, µM, for inactives: max response, negative = inhibition, usual class: inhibitors. 310,000 tested, 3.5% active. AID 1490; active = well fitted inhibition curve with a large enough effect; inconclusive = small, poorly fitted or top-dose-only effect, or another doubt; inactive = no such curve, though single readings can be large or run the other way;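 also: the enzyme is Sfp with the accession as filed and its product quenches rhodamine fluorescence; potency is read from the fitted curve at half-maximal effect; 0% = enzyme reaction without inhibitor and -100% = no enzyme wells; top concentration of the series not given in the record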
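After 15 min at room temperature with compound, 15 nM Sfp received 5 uM rhodamine-CoA plus 12.5 uM BHQ-2-ybbR (50 mM Hepes pH 7.6, 10 mM MgCl2). Rate came from the fluorescence difference over 30 min, ex 525/em 598 nm.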
LMNA splice mod – changes lamin A minigene splicing in HeLa cells | Potency, µM (series often up to 46.1 µM), for inactives: at the top dose ratio change, negative = inhibition, usual class: inhibitors | AID 1487 | 200,000 tested, 0.01% active | HeLa LMNA splicing GFP/RFP minigene ratio, 48 h; active = well fitted inhibition curve with a large enough effect in the signal ratio, with a control signal flat, not every such curve was filed as active; inconclusive = small, poorly fitted or top-dose-only effect, or effect the other way, or a change in a side signal; the % refers to the signal ratio; note: potency is the fitted concentration of half-maximal effect; % is set by controls: 0 for no effect and ±100 for the full control effect
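S3 HeLa stable clones carrying a lamin A-EGFP splicing minigene plus DsRed2 were seeded at 600 cells/well in Opti-MEM with 2% FBS, pin-dosed and incubated 48 h at 37°C. Acumen cytometry (488 nm) gave the GFP/RFP total-intensity ratio.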
ALDH1A1 block – ALDH1A1 (human) enzyme inhibition; Purified ALDH1A1, NADH fluorescence, propionaldehyde substrate; Potency, µM (highest dose often 75.3 µM), for inactives: at the top dose activity, negative = inhibition, most hits filed as inhibitors; 220,000 tested, 7.3% active; AID 1030; active = well fitted inhibition curve with a large enough effect, not every such curve was filed as active; inconclusive = small, poorly fitted or top-dose-only effect, or another doubt; inactive = no such curve, though single readings can be large or run the other way;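 note: potency is the fitted concentration of half-maximal effect; plate controls were no enzyme wells and a reference inhibitor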
Active calls of the source: *; [ ] = dose if it differs, or a comment. Only some compounds are listed: those with a hit (about 13% of all), similar ones and a draw of the others. Unless noted, calls come from the whole dose curve; as a rule, active = well fitted curve in the direction sought with a large enough effect; inconclusive = small, poorly fitted or top-dose-only effect, or another doubt; inactive = no such curve, though single readings can be large; an effect the other way counts as inactive or inconclusive.

Screening COc1ccc(C2C(C#N)=C(N)Oc3c2sc2nc(C)cc(C)c32)cc1 (stereo unspecified) returned miR-21 reporter -6%, G9a inh 11µM*, KDM4E inh inconclusive, Sfp inh 9%, LMNA splice mod -2% and ALDH1A1 block -1%.
`CC(C)Oc1ccccc1C1NC(=O)CCC1[N+](=O)[O-]` (stereo unspecified) gave miR-21 reporter 2%, G9a inh 5% and Sfp inh 0%.
For Cc1csc(NC(=O)CSc2nc3ccccc3s2)n1 the results were miR-21 reporter -3%, G9a inh 10%[59 µM], KDM4E inh -4%, Sfp inh -4%, LMNA splice mod -1% and ALDH1A1 block -4%.
Screening O=C(NCc1ccco1)c1cccnc1-c1nc2ccccc2s1 returned miR-21 reporter -5%, G9a inh inconclusive, KDM4E inh inconclusive, Sfp inh 22µM*, LMNA splice mod 3% and ALDH1A1 block 8.9µM*.
Screening O=C(CCCSc1nc2ccccc2s1)NCc1ccco1 returned miR-21 reporter -18%, G9a inh 79µM*, KDM4E inh -1%, Sfp inh -8%, LMNA splice mod 3% and ALDH1A1 block inconclusive.
Cc1csc(NC(=O)CCCSc2nc3ccccc3s2)n1 was read as miR-21 reporter 2%, G9a inh 2%[12.7 µM], KDM4E inh -5%, Sfp inh -7%, LMNA splice mod inconclusive and ALDH1A1 block 10µM*.
Screening CCc1ccccc1NC(=O)CCCSc1nc2ccccc2s1 returned miR-21 reporter -6%, G9a inh 2%[59 µM], KDM4E inh 8%, Sfp inh -6%, LMNA splice mod inconclusive and ALDH1A1 block 8%.
Screening COc1cccc(C2=NN(C(C)=O)C(c3cn(-c4ccccc4)nc3-c3cccs3)C2)c1 (stereo unspecified) returned miR-21 reporter 0% and G9a inh 17%[59 µM].
Cc1ccc(Cn2c(C(=O)Nc3ccc(Cl)cc3)cc3sccc32)cc1 was read as miR-21 reporter -7% and G9a inh inconclusive.
For COC(=O)CCCC(=O)N1CCC(CCC(=O)NCc2ccc(F)cc2)CC1 the results were miR-21 reporter 4%, G9a inh -6% and Sfp inh 11%.
For Cc1ccc(C)c(C(=O)CSc2nc3cc(C(=O)NC4CCCC4)ccc3c(=O)n2CC2CCCO2)c1 (stereo unspecified) the results were miR-21 reporter 4% and G9a inh 3%[59 µM].
Screening CCN(CCCNC(=O)c1[nH]c(C)c(C(C)=O)c1C)c1ccccc1 returned miR-21 reporter 13%, G9a inh 14µM*, KDM4E inh 8%, Sfp inh 11%, LMNA splice mod inconclusive and ALDH1A1 block 5%.
CC(=O)c1c(C)[nH]c(C(=O)NCCc2ccccc2)c1C was read as miR-21 reporter -18%, G9a inh -41%, KDM4E inh 4%, Sfp inh 9%, LMNA splice mod inconclusive and ALDH1A1 block 2%.
For CC(=O)c1c(C)[nH]c(C(=O)O)c1C the results were miR-21 reporter 2%, G9a inh 10%, KDM4E inh -1%, Sfp inh -3%, LMNA splice mod -16%[46 µM] and ALDH1A1 block -1%.
`CC(=O)c1c(C)[nH]c(C(=O)N(C)C(c2ccccc2)c2ccccc2)c1C` gave miR-21 reporter 1%, G9a inh 4%, KDM4E inh -22%, Sfp inh -1% and ALDH1A1 block 18µM*.
COc1cc([N+](=O)[O-])ccc1NC(=O)NCCCN1CCCC1=O was read as miR-21 reporter 1%, G9a inh 14% and Sfp inh 0%.
`COCc1c(C(=O)N/N=C(/C)c2ccc(OCc3ccccc3)cc2)nnn1-c1nonc1N` gave miR-21 reporter -47%, G9a inh 4% and Sfp inh 17%.
`COCCSc1nnc(NC(=O)C2CC(=O)N(c3ccc(C)cc3)C2)s1` (stereo unspecified) gave miR-21 reporter -1%, KDM4E inh inconclusive, Sfp inh 4%, LMNA splice mod 13%[46 µM] and ALDH1A1 block -13%.
Screening Cc1ccc(N2CC(C(=O)Nc3nnc(SCC(=O)N4CCOCC4)s3)CC2=O)cc1 (stereo unspecified) returned miR-21 reporter -1%, G9a inh 45µM* and Sfp inh 1%.
COc1cc(C(=O)Nc2nnc(SCC(=O)NCC3CCCO3)s2)cc(OC)c1OC (stereo unspecified) was read as miR-21 reporter -1%, G9a inh 71µM* and Sfp inh 10%.
Screening COC(=O)CSc1nnc(NC(=O)C2CC(=O)N(c3ccc(F)cc3)C2)s1 (stereo unspecified) returned miR-21 reporter -2%, G9a inh 40µM* and Sfp inh -22%.
For O=C(Nc1nnc(SCC(=O)N2CCOCC2)s1)C1CC(=O)N(c2ccc(F)cc2)C1 (stereo unspecified) the results were miR-21 reporter 2%, G9a inh 19%[12.7 µM] and Sfp inh inconclusive.
`O=C(CSc1nnc(NC(=O)C2CC(=O)N(c3ccccc3)C2)s1)NCC1CCCO1` (stereo unspecified) gave miR-21 reporter -4%, G9a inh 40µM* and Sfp inh 3%.
O=C(CSc1nnc(Nc2ccccc2)s1)NCC1CCCO1 (stereo unspecified) was read as G9a inh -38%[12.7 µM].
For O=C(CSc1nnc(NC(=O)C2CC(=O)N(c3ccc(F)cc3)C2)s1)NC1CCCC1 (stereo unspecified) the results were miR-21 reporter -10%, G9a inh 25µM* and Sfp inh -20%.
CC(=O)Nc1nnc(SCC(=O)NC2CCCC2)s1 was read as miR-21 reporter 0%, G9a inh -6% and Sfp inh -4%.
`Cc1ccc(N2CC(C(=O)Nc3nnc(SCCC4OCCO4)s3)CC2=O)cc1` (stereo unspecified) gave miR-21 reporter -1%, G9a inh 13µM* and Sfp inh 4%.
Screening Cc1ccc(N2CC(C(=O)Nc3nnc(SCCN4CCOCC4)s3)CC2=O)cc1 (stereo unspecified) returned miR-21 reporter -2%, G9a inh inconclusive and Sfp inh 27%.
`O=C(Nc1nnc(SCC(=O)N2CCCC2)s1)C1CC(=O)N(c2ccc(F)cc2)C1` (stereo unspecified) gave miR-21 reporter -2%, G9a inh 20µM* and Sfp inh inconclusive.

Four consecutive compounds from above:
`O=C(CSc1nnc(NC(=O)C2CC(=O)N(c3ccccc3)C2)s1)NCC1CCCO1` (stereo unspecified) gave miR-21 reporter -4%, G9a inh 40µM* and Sfp inh 3%.
O=C(CSc1nnc(Nc2ccccc2)s1)NCC1CCCO1 (stereo unspecified) was read as G9a inh -38%[12.7 µM].
For O=C(CSc1nnc(NC(=O)C2CC(=O)N(c3ccc(F)cc3)C2)s1)NC1CCCC1 (stereo unspecified) the results were miR-21 reporter -10%, G9a inh 25µM* and Sfp inh -20%.
CC(=O)Nc1nnc(SCC(=O)NC2CCCC2)s1 was read as miR-21 reporter 0%, G9a inh -6% and Sfp inh -4%.

Screening results deposited in PubChem by National Center for Advancing Translational Sciences (NCATS).
